“And” between values parts separate entries of the source, which are not always exact repeats. Equal entries are not always repeated. The list shows a part of the results, in another mix than the full data. Where a structure was tested more than once in an assay, its records may differ in their call. The source made the active and inactive calls. How the source made its calls: active means hit-call score of the fitted dose curve at least 0.9, where 1 is the maximum; inactive means score below 0.9.
Assays:
[1] = read-out: Monokine induced gamma interferon (MIG), CXCL9 (gene 4283); experiment: BSK_CASM3C_MIG: BioMAP Diversity Plus: CASM3C Assay for Monokine induced gamma interferon (MIG) Biomarker Activity (AID 2283048); details: actives raise or lower the signal; primary human coronary artery smooth muscle cells;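 further: MIG protein level measured by ELISA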
[2] = read-out: serum amyloid A (SAA), SAA1 (gene 6288); experiment: BSK_CASM3C_SAA: BioMAP Diversity Plus: CASM3C Assay for serum amyloid A (SAA) Biomarker Activity (AID 2283049); details: actives raise or lower the signal; primary human coronary artery smooth muscle cells;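 further: SAA protein level quantified by ELISA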
[3] = BSK_CASM3C_SRB: Viability Assessment in the BioMAP Diversity Plus: CASM3C Assay (AID 2283050); details: primary human coronary artery smooth muscle cells;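 further: total protein by SRB staining as cytotoxicity measure in parallel cultures; cells exposed to compound for 24 h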
[4] = read-out: Thrombomodulin, THBD (gene 7056); experiment: BSK_CASM3C_Thrombomodulin: BioMAP Diversity Plus: CASM3C Assay for Thrombomodulin Biomarker Activity (AID 2283051); details: actives raise or lower the signal; primary human coronary artery smooth muscle cells;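 further: thrombomodulin protein level measured by ELISA 24 h after dosing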
[5] = read-out: Tissue Factor, F3 (gene 2152); experiment: BSK_CASM3C_TissueFactor: BioMAP Diversity Plus: CASM3C Assay for Tissue Factor Biomarker Activity (AID 2283052); details: actives raise or lower the signal; primary human coronary artery smooth muscle cells;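 further: cell surface tissue factor protein level read by ELISA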
[6] = read-out: Interferon-gamma inducible Protein 10 (IP10), CXCL10 (gene 3627); experiment: BSK_hDFCGF_IP10: BioMAP Diversity Plus: hDFCGF Assay for Interferon-gamma inducible Protein 10 (IP10) Biomarker Activity (AID 2283053); details: actives raise or lower the signal; primary human foreskin fibroblasts
Procedure, shortened: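 ELISA quantification of IP-10 after a 24 h chemical exposure of human dermal foreskin fibroblast primary cultures. Both increases and decreases versus DMSO fitted.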

[7] = read-out: Urokinase-type plasminogen activator receptor (uPAR), PLAUR (gene 5329); experiment: BSK_CASM3C_uPAR: BioMAP Diversity Plus: CASM3C Assay for Urokinase-type plasminogen activator receptor (uPAR) Biomarker Activity (AID 2283054); details: actives raise or lower the signal; primary human coronary artery smooth muscle cells;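 further: cell-surface uPAR protein level quantified by ELISA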
[8] = read-out: Vascular cell adhesion molecule 1 (VCAM1), VCAM1 (gene 7412); experiment: BSK_CASM3C_VCAM1: BioMAP Diversity Plus: CASM3C Assay for Vascular cell adhesion molecule 1 (VCAM1) Biomarker Activity (AID 2283055); details: actives raise or lower the signal; primary human coronary artery smooth muscle cells;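 further: VCAM-1 protein level quantified by ELISA on the cells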
[9] = read-out: Collagen III, COL3A1 (gene 1281); experiment: BSK_hDFCGF_CollagenIII: BioMAP Diversity Plus: hDFCGF Assay for Collagen III Biomarker Activity (AID 2283056); details: actives raise or lower the signal; primary human foreskin fibroblasts
Procedure, shortened: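 Human foreskin fibroblast primary cultures sampled 24 h after dosing; Collagen III quantified by ELISA. Signal fitted bidirectionally against DMSO baseline.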

[10] = read-out: Epidermal growth factor receptor (EGFR), EGFR (gene 1956); experiment: BSK_hDFCGF_EGFR: BioMAP Diversity Plus: hDFCGF Assay for Epidermal growth factor receptor (EGFR) Biomarker Activity (AID 2283057); details: actives raise or lower the signal; primary human foreskin fibroblasts
Procedure, shortened: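 EGFR levels by ELISA in human dermal fibroblast cultures, 24 h post-treatment, fitted bidirectionally versus DMSO. Parallel wells stained with sulforhodamine B to detect overt cytotoxicity.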

SMILES	outcome [1]	outcome [2]	outcome [3]	outcome [4]	outcome [5]	AC50 [6]	outcome [7]	outcome [8]	AC50 [9]	outcome [10]	AC50 [8]	outcome [6]	outcome [9]	AC50 [4]	AC50 [10]
Cc1cc([N+](=O)[O-])cc([N+](=O)[O-])c1O	inactive	inactive	inactive	inactive	inactive	active: 20 µM	inactive	inactive	active: 12.1 µM	inactive					
O=C1C2CC=CCC2C(=O)N1SC(Cl)(Cl)C(Cl)Cl (stereo not drawn)			inactive	inactive	inactive	active: 0.523 µM			active: 0.941 µM		active: 7.72 µM				
CN(C(=O)Cc1cccc2occc12)[C@H]1CC[C@@]2(CCCO2)C[C@@H]1N1CCCC1	inactive	inactive	inactive	inactive	inactive		inactive	inactive		inactive		inactive	inactive		
O=[N+]([O-])c1ccc([N+](=O)[O-])cc1	inactive	inactive	inactive		inactive		inactive	inactive				inactive	inactive	active: 0.493 µM	active: 2.85 µM
O=C(Cl)Oc1ccccc1	inactive	inactive	inactive	inactive	inactive		inactive	inactive		inactive		inactive	inactive		
CC(C)OP(=S)(OC(C)C)SCCNS(=O)(=O)c1ccccc1	inactive	inactive	inactive	inactive	inactive	active: 36.6 µM and active: 32.4 µM and active: 31.5 µM	inactive	inactive	active: 36.1 µM and active: 33.6 µM and active: 31.7 µM	inactive				active: 20 µM	active: 27.6 µM and active: 34 µM

Reference: PubChem BioAssay (EPA / NIEHS)
